The values below come from patent US7071205B2 (Ligand Pharmaceuticals Incorporated, priority 2002, dated 2006).

The assay addresses T1, hPR (Homo sapiens, UniProt P06401).
T1 sequence (P06401 1-933): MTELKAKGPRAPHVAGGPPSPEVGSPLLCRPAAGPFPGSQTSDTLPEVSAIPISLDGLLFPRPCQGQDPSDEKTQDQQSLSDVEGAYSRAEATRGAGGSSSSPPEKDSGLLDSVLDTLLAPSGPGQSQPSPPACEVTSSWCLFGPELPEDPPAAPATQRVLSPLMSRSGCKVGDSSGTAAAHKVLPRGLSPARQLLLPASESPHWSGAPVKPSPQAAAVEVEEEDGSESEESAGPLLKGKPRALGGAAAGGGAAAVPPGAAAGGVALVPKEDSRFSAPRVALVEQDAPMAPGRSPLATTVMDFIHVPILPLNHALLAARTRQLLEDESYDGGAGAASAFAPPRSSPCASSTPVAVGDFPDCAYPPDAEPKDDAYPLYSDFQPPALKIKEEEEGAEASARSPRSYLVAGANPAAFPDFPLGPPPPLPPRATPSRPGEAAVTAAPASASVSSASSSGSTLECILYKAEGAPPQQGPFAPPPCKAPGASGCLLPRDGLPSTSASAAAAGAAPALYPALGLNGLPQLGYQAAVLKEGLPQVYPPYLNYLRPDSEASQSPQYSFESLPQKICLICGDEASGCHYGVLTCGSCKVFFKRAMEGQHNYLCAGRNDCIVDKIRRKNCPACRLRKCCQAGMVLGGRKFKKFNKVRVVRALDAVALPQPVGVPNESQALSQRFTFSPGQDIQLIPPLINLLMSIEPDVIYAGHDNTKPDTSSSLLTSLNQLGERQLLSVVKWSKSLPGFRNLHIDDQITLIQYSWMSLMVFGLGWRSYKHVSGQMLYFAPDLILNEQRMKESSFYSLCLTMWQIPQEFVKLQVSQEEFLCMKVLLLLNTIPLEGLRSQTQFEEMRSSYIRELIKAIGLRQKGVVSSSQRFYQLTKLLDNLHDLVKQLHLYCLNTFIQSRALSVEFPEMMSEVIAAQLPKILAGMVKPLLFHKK
As to the kind of experiment: Cotransfection assay, PR agonist activity in CV-1 cells. To be noted: MTV-LUC reporter, percent maximal response relative to progesterone. Format: cell-based.

SMILES strings stand for the structures.

For `CN(C)c1ccc([C@H]2C[C@]3(C)[C@@H](CC[C@]3(O)CCCO)[C@@H]3CCC4=CC(=O)CCC4=C32)cc1` [ZK299, reference compound], the “PR Agonist CV-1 Cells Efficacy (%)” value is “na (na = not active (i.e. efficacy of <20 and potency of >10,000))”.
